{
  "sequences": {"note": "Chains of the proteins cited; added tags and fusions are not shown.", "UniProt Q02563, whole entry": "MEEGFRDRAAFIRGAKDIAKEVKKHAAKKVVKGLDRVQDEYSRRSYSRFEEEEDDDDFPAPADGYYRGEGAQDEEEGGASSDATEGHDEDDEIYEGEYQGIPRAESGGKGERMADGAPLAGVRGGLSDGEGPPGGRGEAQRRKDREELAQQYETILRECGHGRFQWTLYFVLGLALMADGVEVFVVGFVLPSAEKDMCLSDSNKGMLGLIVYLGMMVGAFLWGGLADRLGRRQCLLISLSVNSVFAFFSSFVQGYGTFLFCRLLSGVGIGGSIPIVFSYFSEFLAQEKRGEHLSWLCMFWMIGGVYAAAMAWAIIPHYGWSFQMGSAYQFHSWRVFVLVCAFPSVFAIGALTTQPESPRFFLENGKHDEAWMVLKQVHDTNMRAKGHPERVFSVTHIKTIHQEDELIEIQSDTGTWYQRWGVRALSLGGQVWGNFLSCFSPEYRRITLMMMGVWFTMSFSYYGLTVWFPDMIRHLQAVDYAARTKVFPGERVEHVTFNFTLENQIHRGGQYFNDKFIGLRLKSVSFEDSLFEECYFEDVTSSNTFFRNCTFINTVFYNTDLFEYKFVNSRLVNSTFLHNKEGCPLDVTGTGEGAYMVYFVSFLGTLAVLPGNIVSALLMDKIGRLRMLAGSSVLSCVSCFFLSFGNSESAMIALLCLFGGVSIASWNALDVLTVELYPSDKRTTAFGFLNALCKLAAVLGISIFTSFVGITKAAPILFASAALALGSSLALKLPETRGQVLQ"},
  "source": "patent US20070135514A1",
  "about": "“Methods for the identification of agents for the treatment of seizures, neurological diseases, endocrinopathies and hormonal diseases” (priority 2002, published 2007)",
  "origin": "cited, not measured here",
  "biological_target": "levetiracetam binding site (LBS) (Rattus norvegicus, UniProt Q02563)",
  "details": "cited from earlier work",
  "data": [
    {"substance": "t-butylbicyclophosphorothionate", "values": [
      {"measurement": "displacement of LEV binding", "result": "do not displace LEV binding"}
    ]}
  ]
}
